Values of other authors, collected in patent publication US5500807A, “Selection method for pharmacologically active compounds” (The Regents of the University of California, priority 1992, dated 1996).

Conditions: in vivo; cited from earlier work

SMILES: CCCCc1oc2ccccc2c1C(=O)c1cc(I)c(OCCN(CC)CC)c(I)c1 [amiodarone, 2-butyl-3-[3,5-diiodo-4-(β-diethylaminoethoxy)-benzoyl]benzofuran]
- tissue accumulation, in words: accumulates extensively in tissues
